Data taken from patent US7270830B2, “Transdermal buprenorphine dosage regimen for analgesia” (dated 2007).

Test: Plasma buprenorphine/norbuprenorphine pharmacokinetics, BTDS 5-10-20 escalation (Example 1)
Settings: for AUCt, mean (SE) / AUC∞, mean (SE) / Cmax, mean (SE) / t1/2, mean (SE) / tmax, mean (SE): plasma
[1] = Elderly Healthy, after application of BTDS 20
[2] = Elderly Hypertensive, after application of BTDS 20
[3] = Young Healthy, after application of BTDS 20

CO[C@]12CC[C@@]3(C[C@@H]1[C@](C)(O)C(C)(C)C)[C@H]1Cc4ccc(O)c5c4[C@@]3(CCN1)[C@H]2O5
AUCt, mean (SE) (Elderly Healthy (n = 10), after application of BTDS 20): 26210 (3102) pg · h/mL
AUC∞, mean (SE) [1]: 30913 (3976)^b pg · h/mL
Cmax, mean (SE) [1]: 158 (18) pg/mL
t1/2, mean (SE) [1]: 48 (5)^b h
tmax, mean (SE) [1]: 257 (14) h
AUCt, mean (SE) (Elderly Hypertensive (n = 11), after application of BTDS 20): 37695 (4023) pg · h/mL
Cmax, mean (SE) [2]: 260 (40) pg/mL
tmax, mean (SE) [2]: 295 (13) h
AUCt, mean (SE) (Young Healthy (n = 11), after application of BTDS 20 (BTDS 5-10-20 escalation)): 31359 (3447) pg · h/mL
AUC∞, mean (SE) [3]: 33535 (3945)^a pg · h/mL
Cmax, mean (SE) [3]: 191 (21) pg/mL
t1/2, mean (SE) [3]: 45 (7)^a h
tmax, mean (SE) [3]: 240 (16) h
Between-group differences in pharmacokinetic parameters (young healthy vs elderly healthy vs elderly hypertensive): no statistically significant differences

Marks after values point to notes of the source that are not given here.
